EP2057188B1 (priority 2006, dated 2008)

How the values were obtained:
[1] = IVGTT duration of action assay, single SC injection; format: in vivo, rat; conditions: compared with 0601GIP3794 (794); @ -120 min
[2] = format: in vivo, NIH/Swiss mice; conditions: AUC240

SMILES	Duration In The Rat IVGTT Assay [1]	Basal Glucose Lowering at 80 nmol/Kg [2]
CC[C@H](C)[C@H](NC(=O)[C@H](CO)NC(=O)[C@H](Cc1ccc(O)cc1)NC(=O)[C@H](CC(=O)O)NC(=O)[C@H](CO)NC(=O)[C@@H](NC(=O)[C@H](Cc1ccccc1)NC(=O)[C@@H](NC(=O)CNC(=O)[C@H](CCC(=O)O)NC(=O)[C@@H](C)NC(=O)[C@H](Cc1ccc(O)cc1)NC(=O)[C@@H](N)CC(C)C)[C@@H](C)O)[C@@H](C)CC)C(=O)N[C@@H](C)C(=O)N[C@@H](CCSC)C(=O)N[C@@H](CC(=O)O)C(=O)N[C@@H](CCCCN)C(=O)N[C@H](C(=O)N[C@@H](Cc1c[nH]cn1)C(=O)N[C@@H](CCC(N)=O)C(=O)N[C@@H](CCC(N)=O)C(=O)N[C@@H](CC(=O)O)C(=O)N[C@@H](Cc1ccccc1)C(=O)N[C@H](C(=O)N[C@@H](CC(N)=O)C(=O)N[C@@H](Cc1c[nH]c2ccccc12)C(=O)N[C@@H](CC(C)C)C(=O)N[C@@H](CC(C)C)C(=O)N[C@@H](C)C(=O)N[C@@H](CCC(N)=O)C(=O)N[C@@H](CCCCN)C(=O)N1CCC[C@H]1C(=O)N[C@@H](CCCCN)C(=O)N[C@@H](CCCCN)C(=O)N[C@H](C(=O)N[C@@H](CCCNC(=N)N)C(=O)N[C@@H](Cc1ccc(O)cc1)C(=O)N[C@@H](CO)C(N)=O)[C@@H](C)CC)C(C)C)[C@@H](C)CC [0601 GIP47 98]	< 3794 @ -120 min	-8%, AUC240
CC[C@H](C)[C@H](N)C(=O)N[C@@H](Cc1ccc(O)cc1)C(=O)N[C@H](C)C(=O)N[C@@H](CCC(=O)O)C(=O)NCC(=O)N[C@H](C(=O)N[C@@H](Cc1ccccc1)C(=O)N[C@H](C(=O)N[C@@H](CO)C(=O)N[C@@H](CC(=O)O)C(=O)N[C@@H](Cc1ccc(O)cc1)C(=O)N[C@@H](CO)C(=O)N[C@H](C(=O)N[C@@H](C)C(=O)N[C@@H](CCSC)C(=O)N[C@@H](CC(=O)O)C(=O)N[C@@H](CCCCN)C(=O)N[C@H](C(=O)N[C@@H](Cc1c[nH]cn1)C(=O)N[C@@H](CCC(N)=O)C(=O)N[C@@H](CCC(N)=O)C(=O)N[C@@H](CC(=O)O)C(=O)N[C@@H](Cc1ccccc1)C(=O)N[C@H](C(=O)N[C@@H](CC(N)=O)C(=O)N[C@@H](Cc1c[nH]c2ccccc12)C(=O)N[C@@H](CC(C)C)C(=O)N[C@@H](CC(C)C)C(=O)N[C@@H](C)C(=O)N[C@@H](CCC(N)=O)C(=O)N[C@@H](CCCCN)C(=O)N1CCC[C@H]1C(=O)N[C@@H](CCCCN)C(=O)N[C@@H](CCCCN)C(=O)N[C@H](C(=O)N[C@@H](CCCNC(=N)N)C(=O)N[C@@H](Cc1ccc(O)cc1)C(=O)N[C@@H](CO)C(N)=O)[C@@H](C)CC)C(C)C)[C@@H](C)CC)[C@@H](C)CC)[C@@H](C)CC)[C@@H](C)O [0601 GIP48 01]		-1%, AUC240
